# Permeability data for macrocyclic peptides

PAMPA is the parallel artificial membrane permeability assay, which has no cells and reads passive diffusion. P is given in units of 10^-6 cm/s (from log10 values with two decimals); larger means faster passage.

- CC(C)C[C@@H]1NC(=O)[C@H](CC(C)C)N(C)C(=O)[C@@H](C)NC(=O)[C@H]2CCCN2C(=O)[C@H](Cc2ccccc2)NC(=O)[C@H](CC(C)C)N(C)C(=O)[C@H]2CCCN2C1=O: PAMPA 1.9 × 10^-6 cm/s
- CC(C)C[C@H]1NC(=O)[C@@H](C)N(C)C(=O)[C@@H]2CCCN2C(=O)[C@H](Cc2ccccc2)NC(=O)CN(Cc2ccccc2)C(=O)[C@@H]2CCCN2C(=O)CN(Cc2ccccc2)C1=O: PAMPA 0.13 × 10^-6 cm/s
- CC(C)C[C@H]1NC(=O)[C@H](C)NC(=O)[C@H](Cc2ccccc2)NC(=O)[C@H](CC(C)C)N(C)C(=O)[C@H]2CCCN2C(=O)CN(Cc2ccccc2)C1=O: PAMPA 1.7 × 10^-6 cm/s
- CCCN1CC(=O)N[C@H](CC(C)C)C(=O)N[C@@H](CC(C)C)C(=O)N2CCC[C@H]2C(=O)N(C)[C@@H](CC(C)C)C(=O)N[C@@H](Cc2ccccc2)C(=O)N2CCC[C@H]2C1=O: PAMPA 3 × 10^-6 cm/s
- CCCN1CC(=O)N[C@@H](CC(C)C)C(=O)N[C@H](CC(C)C)C(=O)N2CCC[C@@H]2C(=O)N(C)[C@H](CC(C)C)C(=O)N[C@@H](Cc2ccccc2)C(=O)N2CCC[C@H]2C1=O: PAMPA 4.3 × 10^-6 cm/s
- CC(C)C[C@@H]1C(=O)N[C@@H](Cc2ccccc2)C(=O)N2CCC[C@@H]2C(=O)N[C@@H](Cc2ccccc2)CC(=O)N[C@H](CC(C)C)C(=O)N[C@@H](Cc2ccccc2)CC(=O)N2CCC[C@H]2C(=O)N1C: PAMPA 1.8 × 10^-6 cm/s
- CCCN1CC(=O)N(C)[C@@H](CC(C)C)C(=O)N[C@@H](Cc2ccccc2)CC(=O)N2CCC[C@H]2C(=O)N(C)[C@@H](CC(C)C)C(=O)N[C@@H](Cc2ccccc2)C(=O)N2CCC[C@@H]2C1=O: PAMPA 7.6 × 10^-6 cm/s
- CC(C)C[C@@H]1NC(=O)[C@H]2CCCN2C(=O)CN(Cc2ccccc2)C(=O)[C@H](CC(C)C)NC(=O)[C@@H](C)N(C)C(=O)[C@@H]2CCCN2C(=O)[C@H](Cc2ccccc2)NC1=O: PAMPA 1.9 × 10^-6 cm/s
- CC(C)C[C@@H]1NC(=O)[C@H]2CCCN2C(=O)CN(Cc2ccccc2)C(=O)[C@H](CC(C)C)N(C)C(=O)C[C@H](Cc2ccccc2)NC(=O)[C@H]2CCCN2C(=O)[C@H](Cc2ccccc2)NC1=O: PAMPA 1.2 × 10^-6 cm/s
- CC(C)C[C@H]1NC(=O)[C@H](C)NC(=O)[C@@H]2CCCN2C(=O)[C@H](Cc2ccccc2)NC(=O)CN(Cc2ccccc2)C(=O)[C@@H]2CCCN2C(=O)[C@@H](CC(C)C)NC1=O: PAMPA 2.2 × 10^-6 cm/s
- CC(C)C[C@@H]1NC(=O)[C@@H](CC(C)C)NC(=O)C[C@H](Cc2ccccc2)NC(=O)[C@H](Cc2ccccc2)NC(=O)[C@@H](CC(C)C)N(C)C(=O)[C@@H]2CCCN2C1=O: PAMPA 2.2 × 10^-6 cm/s
- CC(C)C[C@H]1NC(=O)[C@H](C)N(C)C(=O)[C@H](Cc2ccccc2)NC(=O)[C@H](CC(C)C)N(C)C(=O)[C@@H]2CCCN2C(=O)C[C@H](Cc2ccccc2)NC1=O: PAMPA 2.8 × 10^-6 cm/s
- CC(C)C[C@@H]1NC(=O)[C@H]2CCCN2C(=O)[C@H](CC(C)C)N(C)C(=O)[C@@H](CC(C)C)N(C)C(=O)[C@H](C)NC(=O)[C@H](Cc2ccccc2)NC1=O: PAMPA 6.6 × 10^-6 cm/s
- CC(C)C[C@@H]1NC(=O)[C@H](CC(C)C)N(C)C(=O)[C@@H](C)N(C)C(=O)[C@@H]2CCCN2C(=O)[C@H](Cc2ccccc2)NC(=O)CN(Cc2ccccc2)C(=O)[C@@H]2CCCN2C1=O: PAMPA 2.2 × 10^-6 cm/s
- CC(C)C[C@@H]1C(=O)N2CCC[C@@H]2C(=O)N(Cc2ccccc2)CC(=O)N[C@@H](Cc2ccccc2)C(=O)N2CCC[C@@H]2C(=O)N[C@H](C)C(=O)N(C)[C@H](CC(C)C)C(=O)N1C: PAMPA 5.4 × 10^-6 cm/s
- CC(C)C[C@@H]1C(=O)N[C@@H](Cc2ccccc2)C(=O)N2CCC[C@H]2C(=O)N(C)[C@@H](C)C(=O)N(C)[C@@H](CC(C)C)C(=O)N[C@@H](Cc2ccccc2)CC(=O)N2CCC[C@@H]2C(=O)N1C: PAMPA 5.9 × 10^-6 cm/s
- CC(C)C[C@@H]1NC(=O)C[C@H](Cc2ccccc2)NC(=O)[C@H]2CCCN2C(=O)[C@H](Cc2ccccc2)NC(=O)[C@H](CC(C)C)NC(=O)[C@@H]2CCCN2C(=O)[C@H](CC(C)C)NC1=O: PAMPA 1.9 × 10^-6 cm/s
- CCCN1CC(=O)N[C@H](CC(C)C)C(=O)N[C@@H](CC(C)C)C(=O)N2CCC[C@@H]2C(=O)N(Cc2ccccc2)CC(=O)N[C@@H](Cc2ccccc2)C(=O)N2CCC[C@@H]2C1=O: PAMPA 1.8 × 10^-6 cm/s
- CC(C)C[C@@H]1NC(=O)[C@H](C)N(C)C(=O)[C@H](Cc2ccccc2)NC(=O)[C@H](CC(C)C)N(C)C(=O)[C@@H]2CCCN2C(=O)[C@H](CC(C)C)NC1=O: PAMPA 1.4 × 10^-6 cm/s
- CC(C)C[C@@H]1C(=O)N(C)[C@H](CC(C)C)C(=O)N2CCC[C@@H]2C(=O)N(C)[C@H](CC(C)C)C(=O)N[C@@H](Cc2ccccc2)C(=O)N[C@@H](Cc2ccccc2)CC(=O)N1C: PAMPA 4.8 × 10^-6 cm/s
- CC(C)C[C@@H]1NC(=O)[C@H]2CCCN2C(=O)CN(Cc2ccccc2)C(=O)[C@@H](CC(C)C)NC(=O)C[C@H](Cc2ccccc2)NC(=O)[C@@H]2CCCN2C(=O)[C@H](Cc2ccccc2)NC1=O: PAMPA 1.7 × 10^-6 cm/s
- CC(C)C[C@H]1NC(=O)[C@H](CC(C)C)N(C)C(=O)[C@@H](C)N(C)C(=O)[C@@H]2CCCN2C(=O)[C@H](Cc2ccccc2)NC(=O)[C@H](CC(C)C)N(C)C(=O)[C@@H]2CCCN2C1=O: PAMPA 8.7 × 10^-6 cm/s
- CCCN1CC(=O)N(C)[C@@H](CC(C)C)C(=O)N(C)[C@H](CC(C)C)C(=O)N2CCC[C@@H]2C(=O)N(C)[C@H](CC(C)C)C(=O)N[C@@H](Cc2ccccc2)C(=O)N2CCC[C@H]2C1=O: PAMPA 5.1 × 10^-6 cm/s

The 2 highest values of PAMPA among the entries above:

{"smiles": "CC(C)C[C@H]1NC(=O)[C@H](CC(C)C)N(C)C(=O)[C@@H](C)N(C)C(=O)[C@@H]2CCCN2C(=O)[C@H](Cc2ccccc2)NC(=O)[C@H](CC(C)C)N(C)C(=O)[C@@H]2CCCN2C1=O", "PAMPA (10^-6 cm/s)": "8.7"}
{"smiles": "CCCN1CC(=O)N(C)[C@@H](CC(C)C)C(=O)N[C@@H](Cc2ccccc2)CC(=O)N2CCC[C@H]2C(=O)N(C)[C@@H](CC(C)C)C(=O)N[C@@H](Cc2ccccc2)C(=O)N2CCC[C@@H]2C1=O", "PAMPA (10^-6 cm/s)": "7.6"}

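Lipid, pH, incubation time, direction and concentration are not recorded in the data file. Other peptides of the study may be missing here. Peptides that the database sets to -10, its floor, are left out.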

Collected by the curators of CycPeptMPDB (Li et al. 2023) from Townsend et al. 2020, doi:10.26434/chemrxiv.13335941.v1.